Experimental data: PubChem BioAssay AID624288 (National Center for Advancing Translational Sciences (NCATS), 2012)
Only a part is listed here, and it is no random draw. Inconclusive results are not listed. The source made the active and inactive calls. The call rests on the fitted dose curve; cell line not stated here.

assay: qHTS for Antagonists of gsp, the Etiologic Mutation Responsible for Fibrous Dysplasia/McCune-Albright Syndrome: qHTS; conditions: gsp-mutant cells, cAMP HTRF, 30 min; at 76.9 µM (top of the series) unless noted; further: nearly all actives have a fitted effect of over 65% in size
On the % scale 0 is the no-effect control and ±100 the full control effect.

Row | Structure (SMILES) | activity change, negative = inhibition
1 | CN(C)C1(CNC(=O)c2ccc(S(C)(=O)=O)cc2)CCCCC1 | inactive: 9.06%
2 | CCCC1OP(=O)(Nc2ccccc2)OCC1CC (centres undefined) | inactive: -1.16%
3 | O=C(/C=C/c1ccccc1)OC1CN2CCC1CC2 (centres undefined) | inactive: 12.8%
4 | NC(=O)Nc1ccc([As](=O)(O)O)cc1 | inactive: 11.9%
5 | CN(C(=O)Cc1ccccc1)[C@@H]1CC[C@]2(CCCO2)C[C@H]1N1CCCC1 | inactive: 1.02%
6 | CCOP1(=S)c2c(C)nn(CCC#N)c2N=C(c2ccc(F)cc2)N1C (centres undefined) | inactive: -5.49%
7 | N#CCCN(C(=O)COC(=O)C(O)(c1ccccc1)c1ccccc1)c1ccc(F)cc1 | inactive: 4.11%
8 | CN(C(=O)Cc1ccc(Cl)c(Cl)c1)[C@H]1CC[C@@]2(CCCO2)C[C@@H]1N1CCCC1 | inactive: 5.03%
9 | CC1=NCCc2c1[nH]c1ccccc21.O=[N+]([O-])c1cc([N+](=O)[O-])c(O)c([N+](=O)[O-])c1 | inactive: 4.62%
10 | O=[N+]([O-])c1ccc2c(c1)nnn2O | inactive: 10.6%
11 | O=P(Nc1nccs1)(c1ccccc1)c1nc2ccccc2s1 (centres undefined) | inactive: 7.57%
12 | O=P(Nc1nccs1)(Oc1ccccc1)Oc1ccccc1 | inactive: -4.58%
13 | CCOP1(=S)c2c(C)nn(CCC#N)c2N=C(c2ccccc2F)N1C (centres undefined) | inactive: -1.09%
14 | CS(=O)(=O)c1cc([N+](=O)[O-])c2no[n+]([O-])c2c1 | inactive: -1.95%
15 | O=C(O)COc1ccc([As](=O)(O)O)cc1[N+](=O)[O-] | inactive: 10%
16 | Nc1ccccc1[As](=O)(O)c1ccccc1 | inactive: 3.98%
17 | Nc1cccc2c([As](=O)(O)O)cccc12 | inactive: 0.397%
18 | CP(=O)(Nc1cccc(Br)c1)Oc1ccccc1 (centres undefined) | inactive: 11.2%
19 | Cc1cc(C)cc(OP(C)(=O)Nc2ccccn2)c1 (centres undefined) | inactive: 0.813%
20 | CCCOP(=S)(Nc1nc(N)cc(=O)[nH]1)OCCC | inactive: -4.97%
21 | Cc1ccc(C)c(NP(C)(=O)Oc2ccccc2)c1 (centres undefined) | inactive: -0.81%
22 | CCOP(=O)(Nc1cccc2ccccc12)OCC | inactive: 5.59%
23 | O=C(OC1CN2CCC1CC2)c1ccc(Cl)cc1 (centres undefined) | inactive: 5.69%
24 | COc1ccccc1OP(C)(=O)Nc1cccc(Br)c1 (centres undefined) | inactive: -9.2%
25 | COc1cc(C(=O)NCC2(N3CCOCC3)CCCCC2)cc(Cl)c1OC(C)C | inactive: -15.1%

Row | Structure (SMILES) | activity change, negative = inhibition
26 | O=[As](O)(O)c1cccnc1 | inactive: 5.88%
27 | Cc1cc(C)cc(OP(C)(=O)Nc2ccc(C)cc2C)c1 (centres undefined) | inactive: 1.98%
28 | O=[As](O)(c1cccc(O)c1)c1cccc(O)c1 | inactive: 3.84%
29 | Cc1cccc(OCC(=O)OC2CN3CCC2CC3)c1 (centres undefined) | inactive: 5.4%
30 | CCOC(=O)c1ccc(NP(C)(=O)Oc2cc(C)cc(C)c2)cc1 (centres undefined) | inactive: 7.73%
31 | C[C@@H]1C=CCP(=O)(Oc2ccccc2)O1 (some centres undefined) | inactive: 2.92%
32 | C[C@H]1OP(=O)(Oc2ccccc2)C[C@@H]2O[C@@H]21 (some centres undefined) | inactive: 7.54%
33 | O=C(OCCN1CCN(CCOCc2ccccc2)CC1)C(O)(c1ccccc1)c1ccccc1 | inactive: -10.9%
34 | Cc1ccccc1CN(C)C(=O)COC(=O)C(O)(c1ccccc1)c1ccccc1 | inactive: -7.13%
35 | COC(=O)C1(C)COP(=O)(NCc2ccccc2)OC1 (centres undefined) | inactive: 1.87%
36 | N#C/C(=C\c1ccc(N(CCBr)CCBr)cc1)C(N)=O | inactive: -3.18%
37 | CC(=O)c1ccc(N2CC2c2ccncc2)cc1 (centres undefined) | inactive: 7.34%
38 | CC(=O)Nc1ccc(Oc2c([N+](=O)[O-])cc([N+](=O)[O-])cc2[N+](=O)[O-])cc1 | inactive: -18.6%
39 | CC(=O)Nc1ccc([As](=O)(O)O)c(O)c1 | inactive: 8.33%
40 | CCOc1ccc(C2=NCC(CBr)S2)cc1 (centres undefined) | inactive: 8.56%
41 | O=P1(Nc2nc3ccc(Cl)cc3s2)COc2ccccc2O1 (centres undefined) | inactive: 16.7%
42 | CC(C)c1ccc(OP(C)(=O)Nc2ccc(SC(F)(F)F)cc2)cc1 (centres undefined) | inactive: 6.95%
43 | CP(=O)(Nc1ccccc1F)Oc1ccccc1 (centres undefined) | inactive: 4.49%
44 | CCc1cc(O)c([N+](=O)[O-])c(C)c1[N+](=O)[O-] | inactive: 0.488%
45 | CCC(=O)N1C2C3N(C(=O)CC)C1C1N(C(=O)CC)C(C(N1C(=O)CC)N3C(=O)CC)N2C(=O)CC | inactive: -21.7%
46 | CCN(CC)CCCOC(=O)C(O)(c1ccccc1)C1CCCCC1 (centres undefined) | inactive: -1.36%
47 | O=C(OC1CN2CCC1CC2)c1ccccc1 (centres undefined) | inactive: 1.78%
48 | CC(=O)NC(SC(=S)N(CC(C)C)CC(C)C)C(Cl)(Cl)Cl (centres undefined) | inactive: -8.26%
49 | Cc1ccc(OP(=O)(Nc2ccccn2)Oc2ccc(C)cc2)cc1 | inactive: -11.1%
50 | COC(=O)c1cc2c(s1)N=C(c1ccccc1)N(C)P2(=O)N1CCOCC1 (centres undefined) | inactive: -2.82%

Row | Structure (SMILES) | activity change, negative = inhibition
51 | Cc1c([N+](=O)[O-])cc([N+](=O)[O-])c(Br)c1[N+](=O)[O-] | inactive: -9.12%
52 | CN(C)C(=O)Oc1noc2ccccc12 | inactive: 9.92%
53 | CCCCCOc1ccc(NP(C)(=O)Oc2ccc(Cl)cc2Cl)cc1 (centres undefined) | inactive: 3.36%
54 | Cc1ccccc1OP(=O)(Nc1ccccn1)Oc1ccccc1C | inactive: -20.3%
55 | CC(NC(=O)COC(=O)C(O)(c1ccccc1)c1ccccc1)c1ccccc1 (centres undefined) | inactive: -19.9%
56 | CP(=O)(Nc1ccccc1)Oc1ccc(F)cc1 (centres undefined) | inactive: 36.1%
57 | Cc1ccc(NP(=O)(Oc2cccc(C)c2)Oc2cccc(C)c2)nc1 | inactive: 2.66%
58 | c1ccc(-c2nn[nH]n2)c(-c2nn[nH]n2)c1 | inactive: 1.73%
59 | O=C(NC1CCS(=O)(=O)C1)NP(=S)(Oc1ccccc1)Oc1ccccc1 (centres undefined) | inactive: -22.2%
60 | CCNC(=S)/N=C(\N)N[N+](=O)[O-] | inactive: 7.2%
61 | CCOC(=O)c1ccc(NP(C)(=O)Oc2ccc(F)cc2)cc1 (centres undefined) | inactive: 10.4%
62 | O=P1(N(CCCl)CCCl)OCCC2CCCCN21 (centres undefined) | inactive: 3.67%
63 | Cc1cc(-c2cccc3ccccc23)c(C)cn1.O=[N+]([O-])c1cc([N+](=O)[O-])c(O)c([N+](=O)[O-])c1 | inactive: 7.79%
64 | O=[As](O)(c1ccccc1)c1ccc(O)cc1 | inactive: -12.9%
65 | O=[N+]([O-])c1ccc(OP2(=O)COCCO2)cc1 (centres undefined) | inactive: 7.25%
66 | CC(=O)NC(SC(=S)N(C)C)C(Cl)(Cl)Cl (centres undefined) | inactive: 10.2%
67 | O=[N+]([O-])c1ncn(CCn2cnc([N+](=O)[O-])n2)n1 | inactive: -4.49%
68 | O=C(OC1CN2CCC1CC2)c1cccc(Cl)c1 (centres undefined) | inactive: 7.52%
69 | Nc1ccc([As](=O)(O)c2ccc([N+](=O)[O-])cc2)cc1 | inactive: 7.6%
70 | C(Cc1nn[nH]n1)Cc1nn[nH]n1 | inactive: 11.1%
71 | Cc1c(C(c2ccc3c(c2)OCO3)c2c(C)n(C)n(-c3ccccc3)c2=O)c(=O)n(-c2ccccc2)n1C.O=[N+]([O-])c1cc([N+](=O)[O-])c(O)c([N+](=O)[O-])c1 | inactive: 8.21%
72 | CN(C)C1(CNC(=O)c2ccc(Cl)c(S(N)(=O)=O)c2)CCCCC1 | inactive: 14.3%
73 | O=P(Nc1ccccn1)(c1ccc(Br)cc1)c1ccc(Br)cc1 | inactive: -11.3%
74 | COc1ccc(N)c([N+](=O)[O-])c1[N+](=O)[O-] | inactive: 1.79%
75 | COc1ccc(OP(C)(=O)Nc2cccc(Br)c2)cc1 (centres undefined) | inactive: 2.9%

Row | Structure (SMILES) | activity change, negative = inhibition
76 | COc1ccc(NP(C)(=O)Oc2ccccc2OC)cc1 (centres undefined) | inactive: 13.6%
77 | C[C@H]1OP(=O)(Oc2ccccc2)[C@H](O)[C@H](O)[C@H]1N=[N+]=[N-] (some centres undefined) | inactive: 3.82%
78 | O=P(Nc1nc2ccccc2s1)(c1ccccc1)c1ccccc1 | inactive: -4.55%
79 | CN(C)CCOC(=O)C(O)(c1ccccc1)C1CCCCC1 (centres undefined) | inactive: 8.28%
80 | CP(=O)(Nc1ccc2c(c1)OCCO2)Oc1ccccc1 (centres undefined) | inactive: 3.94% [at 15.4 µM]
81 | Cc1ccccc1NP(C)(=O)Nc1ccccc1C | inactive: -4.89%
82 | O=P(Nc1nccs1)(c1ccccc1)c1ccccc1 | inactive: 5.75%
83 | CC(C)C(=O)NC(Sc1ccccc1)C(Cl)(Cl)Cl (centres undefined) | inactive: -12.2%
84 | CP(=O)(Nc1ccc(SC(F)(F)F)cc1)Oc1ccc(F)cc1 (centres undefined) | inactive: 21.1%
85 | c1nnnn1CCn1cnnn1 | inactive: 12%
86 | CCOP(C)(=S)SCC(=O)NC(C)(CC)C(=O)O (centres undefined) | inactive: 13.7%
87 | CP(=O)(Nc1ccc(Cl)cc1)Oc1ccc(F)cc1 (centres undefined) | inactive: 9.15%
88 | CCN(/C(=N/P(=O)(N1CCOCC1)N1CCOCC1)N1CCOCC1)c1ccc(OC)cc1 | inactive: 3.18%
89 | C[N+]1=C2C=CC=CC=C2SC12C([N+](=O)[O-])=CC([N+](=O)[O-])=C[C-]2[N+](=O)[O-] (centres undefined) | inactive: -8.72%
90 | Nc1ccc([As](=O)(O)c2ccc(N)cc2)cc1 | inactive: 16.1%
91 | CC(C)(C)c1ccc(OP(C)(=O)O)cc1 | inactive: 2.14%
92 | COc1ccccc1OP(C)(=O)Nc1ccccc1Br (centres undefined) | inactive: 10.6%
93 | CC1CCN(C(=O)Oc2c(Cl)cc(Cl)c3cccnc23)CC1 | inactive: 0.529%
94 | CN(C)C(=O)OCCc1n(C)cc[n+]1C | inactive: 17.4%
95 | CC(C)=N/N=C(\N)N[N+](=O)[O-] | inactive: 7.95%
96 | CN(C)C(=O)c1c([N+](=O)[O-])cc([N+](=O)[O-])cc1[N+](=O)[O-] | inactive: 4.11%
97 | COc1ccc(C2=NCC(CBr)S2)cc1 (centres undefined) | inactive: -1.15%
98 | COc1ccc(OP(C)(=O)Nc2ccc(Br)cc2)cc1 (centres undefined) | inactive: 3.66%
99 | CCN(CC)CC(O)COC(=O)C(O)(c1ccccc1)C1CCCCC1 (centres undefined) | inactive: 12.7%
